This is an account of results in BindingDB's records for doi:10.1021/jm030165t (National Center For Genetic Engineering and Biotechnology …, 2004).

Protein sequences, listed by entry. Tags and fused reporters are not part of them. Lines headed by an entry give the natural chain unless they say otherwise; changes in a name come on top.
UniProt P13922: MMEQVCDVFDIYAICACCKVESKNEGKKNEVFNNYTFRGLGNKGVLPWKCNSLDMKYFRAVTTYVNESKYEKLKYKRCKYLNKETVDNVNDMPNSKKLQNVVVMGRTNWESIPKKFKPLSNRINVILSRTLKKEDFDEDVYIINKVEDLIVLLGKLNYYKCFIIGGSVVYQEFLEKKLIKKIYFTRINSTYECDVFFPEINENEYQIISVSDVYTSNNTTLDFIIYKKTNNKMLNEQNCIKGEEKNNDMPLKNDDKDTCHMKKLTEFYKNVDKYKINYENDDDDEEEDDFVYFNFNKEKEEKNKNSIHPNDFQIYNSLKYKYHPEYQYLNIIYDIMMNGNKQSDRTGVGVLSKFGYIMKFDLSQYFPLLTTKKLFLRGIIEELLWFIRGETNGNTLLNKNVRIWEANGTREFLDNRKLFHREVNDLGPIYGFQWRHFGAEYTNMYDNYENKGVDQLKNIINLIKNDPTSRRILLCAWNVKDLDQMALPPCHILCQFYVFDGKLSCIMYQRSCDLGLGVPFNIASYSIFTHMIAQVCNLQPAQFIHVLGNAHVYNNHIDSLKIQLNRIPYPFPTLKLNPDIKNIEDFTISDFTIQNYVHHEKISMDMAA

The structures appear in SMILES notation.

A short description of test [1]: In vitro anti-plasmodial activity against Plasmodium falciparum dihydrofolate reductase wild type (TM4/8.2).
Test [2] is described as follows: In vitro anti-plasmodial activity against Plasmodium falciparum dihydrofolate reductase C59R/S108N (K1CB1) mutant.
For test [3], the target named is Bifunctional dihydrofolate reductase-thymidylate synthase (Plasmodium falciparum (isolate K1 / Thailand), UniProt P13922). Kind of test: Binding affinity towards wild-type dihydrofolate reductase of Plasmodium falciparum.
A short description of test [4]: In vitro anti-plasmodial activity against Plasmodium falciparum dihydrofolate reductase A16V/S108T (T9/94RC17) mutant.
The nature of test [5]: In vitro anti-plasmodial activity against Plasmodium falciparum dihydrofolate reductase C59R+S108N/I164L (Csl-2) mutant.
The nature of test [6]: In vitro anti-plasmodial activity against Plasmodium falciparum dihydrofolate reductase […]/C59R/S108N/I164L (V1/S) mutant.
The nature of test [7]: In vitro anti-plasmodial activity against Plasmodium falciparum dihydrofolate reductase N51I/C59R/S108N (W2).

On to `CC1(C)N=C(N)N=C(N)N1c1cccc(Cl)c1` [1-(3-chlorophenyl)-6,6-dimethyl-1,6-dihydro-1,3,5-triazine-2,4-diamine], for which the IC50 (usually the midpoint of a concentration-inhibition curve) in test [1] is 50 nM; in test [2], 220 nM; in test [4], 330 nM; in test [5], 520 nM; in test [6], 1300 nM; in test [7], 220 nM. The affinity in test [3], expressed as Ki, was 3 nM.
As to `CCCOc1ccc(C2N=C(N)N=C(N)N2c2cccc(Cl)c2)cc1` (stereo not drawn) [1-(3-chlorophenyl)-6-(4-propoxyphenyl)-1,6-dihydro-1,3,5-triazine-2,4-diamine], in test [3], the Ki – broadly, a dissociation constant, usually derived from enzyme kinetics or from competition with a known ligand – was determined as 3.3 nM.
